Data published in BindingDB's records for doi:10.1021/jm3011433 (Pfizer, 2013).

Target: Intermediate conductance calcium-activated potassium channel protein 4 (Homo sapiens) (UniProt O15554)
Experiment: Inhibition of IK (unknown origin)

## NC(=O)C(c1ccccc1)(c1ccc(F)cc1)c1ccc(F)cc1 [SENICAPOC]
  pIC50: < 6.00

pIC50: −log10 of the molar value.
